Legend:
Type in all cases: in vivo, human
[1] = test system: patients with Spinocerebellar Ataxia Type 2; experiment: 99mTc HMPAO Brain SPECT in Spinocerebellar Ataxia Type 2 patients (Example 2); settings: patient P2, after zolpidem
[2] = test system: patient after subarachnoid haemorrhage; experiment: Brain SPECT before and after zolpidem after subarachnoid haemorrhage (Example 4); settings: 1 hour after 10 mg zolpidem
[3] = test system: patient who had suffered a stroke; experiment: 99mTc HMPAO Brain SPECT before and after zolpidem in a stroke patient (Example 1); settings: 1 hour after 10 mg zolpidem vs baseline
Protocol: A patient was prescribed 10 mg zolpidem for treatment of their insomnia. They had suffered a stroke several years before and presented with left-sided paraplegia since the onset of their stroke. Their cognition was still normal but they had some aphasia and decreased proprioseption that was evident from their inability to use scissors with their right hand. The clinical and neurological features of the patient were unremarkable apart from the above. The patient was investigated by ^99mTc HMPAO Brain Spect before and after zolpidem application.
Two brain SPECT studies were completed on different days. The first study was completed in the normal baseline state and the second study was performed 1 hour after application of 10 mg zolpidem on the following day. The imaging was started 30 minutes after intravenous injection of 900 MBq ^99mTc HMPAO, using a dual head SOPHY DST XLi gamma camera. Acquisition parameters were 64 angular views over 3600 at 45 seconds per view. Ultra high resolution fanbeam collimation without zoom was used and a 20% symmetrical window over 140 KeV. The images were reconstructed using a Metz prefilter. Transaxial, sagital and coronal slices were constructed without attenuation or scatter correction. The images before and after application of zolpidem were assessed in comparative transaxial slices and in different segments of the brain.

What does the source list for `Cc1ccc(-c2nc3ccc(C)cn3c2CC(=O)N(C)C)cc1` [zolpidem]?
decreased tracer uptake in the left thalamus and cerebellum [1]: normalized; decreased tracer uptake in the left thalamus and medial frontal regions bilaterally [2]: improved; area affected by the stroke (no tracer uptake) [3]: did not change; cerebellar 99Tc HMPAO uptake [3]: normalised; crossed cerebellar diaschisis [3]: reversed
